# Results from patent publication EP4837913A2, “SMALL MOLECULE INHIBITOR OF CATHEPSIN C AND MEDICINAL USE THEREOF” (dated 2026).
# Tests used:
# [1] = Pharmacokinetic experiment in BALB/c mice; conditions: PO, 5 mg/kg
# [2] = Pharmacokinetic experiment in beagle dogs
# rhCatC = test: In vitro enzyme activity experiment of rhCatC (AMC fluorescence assay, substrate H-Gly-Arg-AMC); conditions: read-out: Biological activity IC50, 30 min pre-incubation
# CatC = test: In vitro CatC cell activity experiment in the U937 cell line; conditions: read-out: Biological activity IC50, U937 cells, 1 hour compound incubation
IC50 (rhCatC) [nM],IC50 (CatC) [nM],Molecule,Cmax [1] [ng/mL],"clearance rate decreased, compared with AZD7986 ([2]; IV 1 mg/kg)","Cmax ([2]; PO, 2 mg/kg) [ng/mL]"
,,N#Cc1ccc2c(c1)COc1cc(C[C@@H](C#N)NC(=O)[C@@H]3CNCCCO3)c(F)cc1-2,1340,about 3 times,577
14.5,8.3,N#CC(Cc1ccc2c(c1)COc1cc(F)ccc1-2)NC(=O)C1(N)CCOCC1 (stereo not drawn),,,
17,,"(S)-1-Amino-N-(1-cyano-2-(2-(4-fluorophenyl)-3-oxo-1,2,3,4-tetrahydroisoquinolin-6-yl)ethyl)cyclohexane-1-carboxamide",,,
